Laboratory results taken from patent US10913711B2, “Potent and selective inhibitors of monoamine transporters; method of making; and use thereof” (priority 2013, dated 2021).
Like-named read-outs stand apart in the source and are kept apart here.

Protein sequences, listed by entry. Tags and fused reporters are not part of them.
UniProt P23977, whole entry: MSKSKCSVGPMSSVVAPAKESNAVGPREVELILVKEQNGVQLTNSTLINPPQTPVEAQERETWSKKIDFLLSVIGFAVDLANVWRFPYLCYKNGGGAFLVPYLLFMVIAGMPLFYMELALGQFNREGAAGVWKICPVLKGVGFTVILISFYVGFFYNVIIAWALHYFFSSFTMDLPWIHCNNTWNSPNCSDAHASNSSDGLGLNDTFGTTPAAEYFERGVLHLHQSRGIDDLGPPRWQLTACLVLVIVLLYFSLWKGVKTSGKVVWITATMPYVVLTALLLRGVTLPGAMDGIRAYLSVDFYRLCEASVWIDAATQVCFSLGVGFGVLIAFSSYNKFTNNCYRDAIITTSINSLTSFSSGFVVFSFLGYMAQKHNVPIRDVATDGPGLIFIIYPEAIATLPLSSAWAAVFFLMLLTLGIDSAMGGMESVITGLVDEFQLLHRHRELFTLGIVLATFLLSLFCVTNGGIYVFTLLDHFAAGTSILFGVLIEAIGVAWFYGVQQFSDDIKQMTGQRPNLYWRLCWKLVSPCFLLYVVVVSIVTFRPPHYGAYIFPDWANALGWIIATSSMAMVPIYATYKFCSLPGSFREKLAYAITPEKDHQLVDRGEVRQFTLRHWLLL

Key:
DAT = DAT (Rattus norvegicus (Rat), UniProt P23977); test: Dopamine Transporter Binding Assay ([3H]WIN 35428, rat striatal membranes)
human SERT T497A mutant = human SERT T497A mutant (Homo sapiens (Human), UniProt P31645, T497A); test: cell-based; details: COS-7, read-out: hSERT T497A Ki [S.E. interval] (nM)
[1] = mouse plasma
[2] = selectivity ratio of Ki values, rat brain membranes

SMILES: O=C(CSC(c1ccc(Br)cc1)c1ccc(Br)cc1)NCCCc1ccccc1 [Compound 2x, 2-((Bis(4-bromophenyl)methyl)thio)-N-(3-phenylpropyl)acetamide]
- NET/DAT (DAT; [2]): ≥ 149
- SERT/DAT (DAT; [2]): ≥ 249

SMILES: CNC(=O)CSC(c1ccccc1)c1ccccc1 [Compound 2g, 2-(Benzhydrylthio)-N-methylacetamide]
- inhibition at 100 µM (human SERT T497A mutant): < 50%

SMILES: Fc1ccc(C(SCCNCCCc2ccccc2)c2ccc(F)cc2)cc1 [Compound 4g, N-(2-((bis(4-fluorophenyl)methyl)thio)ethyl)-3-phenylpropan-1-amine]
- terminal half-life (t1/2) ([1]; 10 mg/kg): approximately 1 hour
- t1/2 ([1]; 10 mg/kg I.V.): 59.8 min

SMILES: O=C(C[S+]([O-])C(c1ccc(Br)cc1)c1ccc(Br)cc1)NCCCc1ccccc1 (stereo not shown) [Compound 3g, 2-(Bis(4-bromophenyl)methylsulfinyl)-N-(3-phenylpropyl)acetamide]
- DAT:SERT ratio (DAT; ratio of binding affinities, rat brain membranes): 1.4

SMILES: O=C(CSC(c1ccc(Br)cc1)c1ccc(Br)cc1)NCCCCc1ccccc1 [Compound 2z, 2-((Bis(4-bromophenyl)methyl)thio)-N-(4-phenylbutyl)acetamide]
- SERT/DAT (DAT): ≥ 241

SMILES: CCCCNCC[S+]([O-])C(c1ccccc1)c1ccccc1 (stereo not shown) [Compound 5b, N-(2-(benzhydrylsulfinyl)ethyl)butan-1-amine]
- NET/DAT (DAT; [2]): 89

SMILES: CCCCNCCSC(c1ccccc1)c1ccccc1 [Compound 4e, N-(2-(benzhydrylthio)ethyl)butan-1-amine]
- NET/DAT (DAT; [2]): 36
- SERT/DAT (DAT; [2]): 18
